Compound activity: PubChem, National Center for Advancing Translational Sciences (NCATS)
uPA surface inh = inhibitors of cell surface uPA generation; cell surface uPA generation assay, qHTS; Potency, µM (highest dose often 38.3 µM), inactives show at the top dose activity change, negative = inhibition, most hits filed as inhibitors; 330,000 tested, 0.31% active; AID 540303; active = well fitted inhibition curve with a large enough effect; inconclusive = small, poorly fitted or top-dose-only effect; inactive = no such curve, though single readings can be large or run the other way; tested in mouse RAW 264.7 cells; also: potency is read from the fitted curve at half-maximal effect; % is scaled to controls: 0 for no effect and ±100 for the full control effect; nearly all actives have a fitted effect of over 55% in size
DT40 TDP1 CPT = DT40-hTDP1 cell growth loss with CPT | chicken DT40 Tdp1-/-;hTDP1 cells + 20 nM CPT, ATP luminescence, 48 h | 420,000 tested, 12% active | Potency, µM (series often up to 46.2 µM), for the others: top-dose activity change, negative = growth inhibition, most hits filed as inhibitors | AID 686979; also: potency is read from the fitted curve at half-maximal effect; % is scaled to controls: 0 for no effect and ±100 for the full control effect; nearly all actives have a fitted effect of over 55% in size
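Chicken DT40 Tdp1-/- cells complemented with human TDP1, 400 cells/well, exposed to compounds plus 20 nM camptothecin for at least 48 h at 37 C; viability read as ATP content by CellTiter-Glo luminescence.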
miR-21 reporter = miR-21 reporter, rising signal; HeLa miR-21 FLuc reporter, luciferase, 48 h; Potency, µM (highest dose often 38.3 µM), for the others: top-dose reporter change, positive = more light; 340,000 tested, under 10 active; AID 2288; active = well fitted rising curve with a large enough effect; inconclusive = small, poorly fitted or top-dose-only effect; inactive = no such curve, though single readings can be large or run the other way;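 further: % of control where 0% means no effect; miR-21 action dims this reporter so a rising signal means less miR-21 action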
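HeLa cells endogenously expressing miR-21, stably carrying CMV-driven firefly luciferase with a downstream miR-21 binding site, 2000 cells/well. Titrations up to approximately 40 uM, 48 hours; luciferase luminescence read.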
TDP1 block = inhibitors of human tyrosyl-DNA phosphodiesterase TDP1; Potency, µM (doses to about 130 µM), inactives show top-dose activity change, negative = inhibition, hits mostly inhibitors; 350,000 tested, 0.28% active; recombinant TDP1, AlphaScreen DNA substrate cleavage; also: potency is read from the fitted curve at half-maximal effect; % is scaled to controls: 0 for no effect and ±100 for the full control effect; nearly all actives have a fitted effect of over 40% in size
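Recombinant human Tdp1 (E. coli-expressed, 1 nM final) preincubated with compounds 15 min at room temperature, then 5'-biotin/3'-phosphotyrosine-FITC DNA substrate (15 nM final) added for 5 min. AlphaScreen beads (10 ug/ml final) added 10 min; cleavage lowers signal.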
TDP1 cell noCPT = qHTS for Inhibitors of human tyrosyl-DNA phosphodiesterase 1 (TDP1): qHTS in cells in absence of CPT | DT40 Tdp1-/- hTDP1 cells, no CPT, ATP luminescence, 48 h | 420,000 tested, 15% active | Potency, µM (series often up to 46.2 µM), for inactives: at the highest dose activity change, negative = growth inhibition, most hits filed as inhibitors; also: potency is read from the fitted curve at half-maximal effect; % is scaled to controls: 0 for no effect and ±100 for the full control effect; nearly all actives have a fitted effect of over 55% in size
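Cells were dispensed at 400 per well, compounds added by pin tool, plates incubated ≥48 hr at 37 °C, then CellTiter-Glo added for 30 min at room temperature before luminescence reading. Line: DT40 Tdp1-/- complemented with hTDP1; camptothecin omitted.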
The depositor's hits bear a star; u = inconclusive; x = no result given; [ ] = another dose, or the depositor's remark. An excerpt weighted towards active compounds, which were near 16% of everything screened. Unless noted, calls follow the shape of the dose curve; as a rule, active = well fitted curve in the direction sought with a large enough effect; inconclusive = small, poorly fitted or top-dose-only effect, or another doubt; inactive = no such curve, though single readings can be large; an effect the other way counts as inactive or inconclusive.

Values in the order: TDP1 block	uPA surface inh	miR-21 reporter	TDP1 cell noCPT	DT40 TDP1 CPT
1	CC(NC(=O)C1CCC(=O)N1Cc1ccc(F)cc1)c1ccc2c(c1)OCCO2 (centres undefined)
  2.5%	-8.7%	-2.3%	-21.2%	-10.4%
2	CCOC=C1SC(=S)N(c2ccccc2OC)C1=O
  x	x	x	-16.2%	1.0%
3	CC1(C(=O)NCc2cccs2)Cc2c(-c3ccc4c(c3)OCO4)ccnc2O1 (centres undefined)
  x	x	x	2.31µM*	1.3µM*
4	CC1(C(=O)NCc2cccs2)Cc2c(-c3ccccc3)ccnc2O1 (centres undefined)
  x	x	x	6.51µM*	5.8µM*
5	CC(=O)NCCNC(=O)C1(C)Cc2c(-c3ccc(NC(C)=O)cc3)ccnc2O1 (centres undefined)
  x	x	x	u	-1.3%
6	COc1ccc(CCCNC(=O)C2(C)Cc3c(-c4ccc5c(c4)OCO5)ccnc3O2)cc1 (centres undefined)
  x	x	x	5.8µM*	5.17µM*
7	CN(C)c1ccc(-c2ccnc3c2CC(C)(C(=O)NCc2cccs2)O3)cc1 (centres undefined)
  x	x	x	13µM*	16.4µM*
8	O=C(COc1ccc(Br)cc1)NCCCn1ccnc1
  0.7%	5.9%	1.8%	8.6%	13.2%
9	C=CCNC(=O)COC(=O)c1cc(S(=O)(=O)N2CCOCC2)ccc1N1CCCCC1
  -1.1%	-3.0%	-3.5%	-19.0%	-1.6%
10	COc1cc(/C=N\NC(=O)CC(=O)NCCc2ccccc2)ccc1O
  0.0%	4.0%	-0.7%	-15.3%	13.6%
11	O=C1C2CCCCN2C(=O)N1CCN1CCN(c2cccc(Cl)c2)CC1 (centres undefined)
  x	15.0%	x	u	-25.0%
12	CC1(C(=O)NCc2cccc(Cl)c2)Cc2c(-c3ccc4c(c3)OCO4)ccnc2O1 (centres undefined)
  x	x	x	16.4µM*	25.9µM*
13	COc1ccc(F)c(CN2CCOc3ccc(CN4CCC(Oc5cccnc5)CC4)cc3C2)c1
  x	x	x	u	-7.1%[9.04 µM]
14	COc1cc(OC)c(CN2CCOc3ccc(CN4CCC(O)CC4)cc3C2)c(OC)c1
  x	x	x	23.1µM*	u
15	COc1ccc(CN2CCOc3ccc(CN4CCC(Oc5cccnc5)CC4)cc3C2)c(F)c1
  x	x	x	20.6µM*	u
16	COc1cc(CN2CCOc3ccc(CN4CCC(Oc5cccnc5)CC4)cc3C2)ccc1F
  x	x	x	20.6µM*	u
17	COc1cc(CN2CCOc3ccc(CN4CCN(CCO)CC4)cc3C2)ccc1F
  x	x	x	-15.2%	6.0%[9.04 µM]
18	O=C(c1cscn1)N1CCOc2ccc(CN3CCC(Oc4cccnc4)CC3)cc2C1
  x	x	x	0.291µM*	u
19	COc1cc(OC)c(NC(=S)NCc2ccc(F)cc2)cc1Cl
  0.0%	0.0%	-1.6%	u	0.8%
20	CCc1ccc(CN2CCC(Oc3ccc(C(=O)N4CCCCC4)cc3)CC2)cc1
  2.8%	-9.1%	10.7%	14.6µM*	u
21	O=C(c1ccc(OC2CCN(C/C=C/c3ccc(F)cc3)CC2)cc1)N1CCCC1
  1.7%	-8.0%	12.9%	u	25.9µM*
22	COCC(=O)N1CCC(Oc2ccc(C(=O)N(C)CCCC3CCCC3)cc2)CC1
  0.8%	-8.1%	13.3%	20.6µM*	18.4µM*
23	O=C(c1ccc(OC2CCN(Cc3ccc(F)cc3)CC2)cc1)N1CCCC1
  0.5%	-1.2%	-5.2%	-22.0%	-13.7%
24	CCc1ccc(CN2CCC(Oc3ccc(C(=O)N4CCCC4)cc3)CC2)cc1
  3.7%	-8.0%	-2.1%	u	18.4µM*
25	O=C(c1ccc(OC2CCN(CCc3ccccc3)CC2)cc1)N1CCCC1
  0.9%	-6.5%	-9.2%	-10.4%	-9.7%
26	COCCc1nnc(NC(=O)C(C)C)s1
  x	6.4%	4.3%	4.9%	14.5%
27	COCC(=O)N1CCC(Oc2ccc(C(=O)N3CCCCCCC3)cc2)CC1
  5.6%	-3.5%	-8.9%	13µM*	u
28	C=CCOc1ccccc1CN1CCC(Oc2ccc(C(=O)N3CCCCC3)cc2)CC1
  3.3%	u	11.3%	20.6µM*	u
29	Cc1ccccc1NC(=O)NC1CCCCCCC1
  1.7%	-4.1%	-15.4%	0.9%	-9.5%
30	Cn1nc(C(F)(F)F)c(C(=O)Nc2cccc(Cl)c2)c1Cl
  2.9%	-3.1%	-2.7%	u	-29.5%
31	Cc1ccccc1NS(=O)(=O)c1ccc(Br)s1
  -3.6%	x	u	-2.6%	-9.5%
32	Cc1cccc(C(P(=O)(c2ccccc2)c2ccccc2)P(=O)(c2ccccc2)c2ccccc2)n1
  2.7%	-0.4%	-7.9%	16.4µM*	u
33	COc1ccccc1-[n+]1c(C)cc(/C=C2\Sc3ccccc3N2C)cc1C
  5.0%	u	u	0.0206µM*	0.0651µM*
34	COc1ccccc1OC(=O)CCN1c2ccccc2Sc2ccccc21
  -0.6%	1.2%	-4.7%	-17.6%	0.3%
35	COc1ccc(-[n+]2c(C)cc(/C=C3\Sc4ccccc4N3C)cc2C)cc1
  4.7%	u	u	0.0073µM*	0.0146µM*
36	CCc1ccc(NC(=S)NCC2CCCN2CC)cc1 (centres undefined)
  4.6%	x	-16.4%	-20.0%	2.1%
37	COc1ccc(NC(=O)Cn2cnc3sc(C)c(S(=O)(=O)N4CCN(c5ccccc5OC)CC4)c3c2=O)cc1OC
  8.8%	x	-13.6%	0.4%	5.0%
38	COc1ccc(-c2nn(-c3ccccc3)cc2CNCCN2CCOC2=O)c(F)c1
  3.6%	-5.5%	-21.6%	u	u
39	COc1ccc(-n2cc(CNCCCN3CCCC3=O)c(-c3ccccc3Cl)n2)cc1
  x	-4.8%	-0.2%	16.4µM*	16.4µM*
40	Cn1cccc1C(=O)OCc1ccc(C(C)(C)C)cc1
  x	-0.4%	-55.7%	u	u

Filtered by structure, the compounds so far with a Cl atom (5)
Values in the order: TDP1 block	uPA surface inh	miR-21 reporter	TDP1 cell noCPT	DT40 TDP1 CPT
11	O=C1C2CCCCN2C(=O)N1CCN1CCN(c2cccc(Cl)c2)CC1 (centres undefined)
  x	15.0%	x	u	-25.0%
12	CC1(C(=O)NCc2cccc(Cl)c2)Cc2c(-c3ccc4c(c3)OCO4)ccnc2O1 (centres undefined)
  x	x	x	16.4µM*	25.9µM*
19	COc1cc(OC)c(NC(=S)NCc2ccc(F)cc2)cc1Cl
  0.0%	0.0%	-1.6%	u	0.8%
30	Cn1nc(C(F)(F)F)c(C(=O)Nc2cccc(Cl)c2)c1Cl
  2.9%	-3.1%	-2.7%	u	-29.5%
39	COc1ccc(-n2cc(CNCCCN3CCCC3=O)c(-c3ccccc3Cl)n2)cc1
  x	-4.8%	-0.2%	16.4µM*	16.4µM*

(list continues)
Values in the order: TDP1 block	uPA surface inh	miR-21 reporter	TDP1 cell noCPT	DT40 TDP1 CPT
41	C=CCOC(=O)C1=C(C)NC(C)=C(C(=O)OCC=C)C1c1cn(-c2ccccc2)nc1-c1ccco1
  1.3%	28.7%	-8.4%	u	-2.2%
42	Cc1csc2nc(COc3ccccc3NC(=O)c3ccco3)cc(=O)n12
  6.4%	x	-1.7%	u	9.2%
43	COc1ccc(-n2c(/C=C/c3ccccc3F)nc3cc(OC)c(OC)cc3c2=O)cc1Cl
  5.2%	x	-1.5%	18.4µM*	14.6µM*
44	COc1ccc(-n2c(=O)c3ccccc3n(Cc3ccccc3F)c2=O)cc1OC
  4.9%	24.3%	1.1%	u	u
45	COc1ccc(-n2c(/C=C/c3cccc(C(F)(F)F)c3)nc3ccccc3c2=O)cc1Cl
  5.2%	x	2.4%	13µM*	8.2µM*
46	COc1ccc(-n2c(SC3CCOC3=O)nc3ccccc3c2=O)cc1Cl (centres undefined)
  2.6%	-24.5%	-3.0%	u	13µM*
47	CCOc1ccc(-n2c(/C=C/c3cccc(F)c3)nc3cc(OC)c(OC)cc3c2=O)cc1
  0.0%	x	0.0%	9.2µM*	9.2µM*
48	O=C(O)c1ccc(-n2c(/C=C/c3ccccc3)nc3ccccc3c2=O)cc1
  x	6.4%	-12.4%	-3.4%	u
